Data from ChEMBL document CHEMBL1143879, “Identification of novel series of human CCR1 antagonists” (Bioorg Med Chem Lett, 2008).

What was measured:
[1] = Selectivity for human CCR1 receptor over CCR2 receptor
[2] = Selectivity for human CCR1 receptor over CCR5 receptor
[3] = Selectivity for human CCR1 receptor over CCR3 receptor

- Selectivity ratio [1]: > 100
- Selectivity ratio [2]: > 100
- Selectivity ratio [3]: > 100
Compound: O=S(=O)(NCCCN1CCC(O)(c2ccc(Cl)cc2)CC1)c1ccccc1-c1ccccc1
